Our source for the IC50 values is PubChem BioAssay AID2305 (GlaxoSmithKline (GSK), 2010).

The subject of this assay is P. falciparum 3D7 growth, pLDH absorbance. In words: blood-stage malaria parasite growth potency – strain 3D7, dose response (AID 2305).

What is called IC50 is the concentration needed to halve the response being measured. A lower IC50 goes with inhibition by little substance.

In the case of `CCN1CCCC(OC(=O)C(O)(c2ccc3c(c2)OCO3)c2ccc3c(c2)OCO3)C1` (configuration not stated), the IC50 was determined as 780 nM.

`CCN1CCCC1COC(=O)C(O)(c1ccc2c(c1)OCO2)c1ccc2c(c1)OCO2` (configuration not stated) yielded a half-inhibitory concentration (IC50) of 800 nM.
